Experimental data taken from ChEMBL document CHEMBL3585309, “Peroxisome Proliferator-Activated Receptor γ (PPARγ) and Ligand Choreography: Newcomers Take the Stage” (J Med Chem, 2015).

Protein sequences, listed by entry. Tags and fused reporters are not part of them. Lines headed by an entry give the natural chain unless they say otherwise; changes in a name come on top.
UniProt P37231: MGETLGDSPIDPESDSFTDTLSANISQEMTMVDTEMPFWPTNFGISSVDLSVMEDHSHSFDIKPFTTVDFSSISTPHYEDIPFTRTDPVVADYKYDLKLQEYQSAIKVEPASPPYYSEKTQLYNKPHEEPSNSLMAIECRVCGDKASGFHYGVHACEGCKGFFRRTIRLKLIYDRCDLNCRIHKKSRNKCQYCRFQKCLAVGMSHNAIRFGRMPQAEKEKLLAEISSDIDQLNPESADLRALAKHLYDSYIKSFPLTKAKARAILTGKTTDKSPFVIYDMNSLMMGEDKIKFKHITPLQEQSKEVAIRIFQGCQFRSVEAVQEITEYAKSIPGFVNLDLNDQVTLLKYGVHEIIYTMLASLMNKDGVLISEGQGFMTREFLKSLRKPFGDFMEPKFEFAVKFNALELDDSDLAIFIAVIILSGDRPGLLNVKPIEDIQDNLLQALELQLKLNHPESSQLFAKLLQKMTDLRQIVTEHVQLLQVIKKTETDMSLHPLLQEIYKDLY

Biological target: Peroxisome proliferator-activated receptor gamma (Homo sapiens, UniProt P37231)
Test: Activity at PPARgamma (unknown origin) assessed as transactivation activity by reporter gene assay relative to rosiglitazone

Q: With Cc1c(C)n(Cc2ccc(-c3ccccc3C(=O)O)cc2)c2ccc(C(=O)N[C@@H](C)c3ccc([N+](=O)[O-])cc3)cc12 as the molecule, how does the %max read?
A: 0%
